From ChEMBL document CHEMBL4321821, “Opioids as Substrates and Inhibitors of the Genetically Highly Variable Organic Cation Transporter OCT1” (J Med Chem, 2019) come the findings set out here.

Each structure is given as a SMILES string.

The target of data set [1] is T1, OCT1 (SLC22A1) (Homo sapiens, UniProt O15245).
T1 sequence (O15245 whole entry): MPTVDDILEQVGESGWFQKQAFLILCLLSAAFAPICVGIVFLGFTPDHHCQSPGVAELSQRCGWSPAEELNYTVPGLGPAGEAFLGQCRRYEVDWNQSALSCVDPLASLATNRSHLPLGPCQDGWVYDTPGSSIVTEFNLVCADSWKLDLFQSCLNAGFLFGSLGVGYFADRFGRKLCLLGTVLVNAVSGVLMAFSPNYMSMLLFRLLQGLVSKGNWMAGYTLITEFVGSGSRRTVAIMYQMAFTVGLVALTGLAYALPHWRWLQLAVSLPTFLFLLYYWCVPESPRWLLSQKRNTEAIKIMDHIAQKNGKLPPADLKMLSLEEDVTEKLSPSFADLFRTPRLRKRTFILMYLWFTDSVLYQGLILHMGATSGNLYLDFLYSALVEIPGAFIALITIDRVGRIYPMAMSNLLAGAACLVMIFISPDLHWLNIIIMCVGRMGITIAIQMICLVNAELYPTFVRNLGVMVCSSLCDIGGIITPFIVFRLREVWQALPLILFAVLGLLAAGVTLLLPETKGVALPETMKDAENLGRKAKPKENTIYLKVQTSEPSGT
Nature of the data set: (§1) Substrate activity at human OCT1 expressed in HEK293 cells assessed as increase in compound uptake at 0.5 uM incubated for 2 mins by LC-MS/MS analysis relative to control empty vector transfected cells. The note with it: HEK293 cells that express human OCT1, read-out: FC. The format is cell-based.

Data set [2] concerns the target T2, Solute carrier family 22 member 1 (Homo sapiens, UniProt O15245).
T2 sequence (O15245 whole entry): T1 sequence (O15245 whole entry)
Nature of the data set: Substrate activity at OCT1 in primary human hepatocytes assessed as increase in compound uptake at 1 uM incubated for 2 mins by LC-MS/MS analysis relative to control. The format is cell-based.

Data set [3] is described as follows: Ratio of unbound Cmax in human at 450 mg, po to inhibition of human OCT1 expressed in HEK293 cells assessed as reduction in ASP+ substrate uptake by microplate reader based analysis. Particulars: in vivo. The format is ADME, organism-based.
The nature of data set [4]: Ratio of unbound maximal portal vein concentration in human at 450 mg, po to inhibition of human OCT1 expressed in HEK293 cells assessed as reduction in ASP+ substrate uptake by microplate reader based analysis. Format: ADME, organism-based. Particulars: in vivo.
Data set [5] concerns the target T1, OCT1 (SLC22A1). The experiment in a line: (§2) Substrate activity at human OCT1 expressed in HEK293 cells assessed as increase in compound uptake at 0.1 uM incubated for 2 mins by LC-MS/MS analysis relative to control empty vector transfected cells. Format: cell-based. Particulars: HEK293 cells that express human OCT1, read-out: FC.
Data set [6] has as its target T2, Solute carrier family 22 member 1. Nature of the data set: Substrate activity at OCT1 in primary human hepatocytes assessed as increase in compound uptake at 0.1 uM incubated for 2 mins by LC-MS/MS analysis relative to control. The format is cell-based.
The target in data set [7] is T1, OCT1 (SLC22A1). Nature of the data set: (§3) Substrate activity at human OCT1 expressed in HEK293 cells assessed as increase in compound uptake at 0.05 uM incubated for 2 mins by LC-MS/MS analysis relative to control empty vector transfected cells. The format is cell-based. The note with it: HEK293 cells that express human OCT1, read-out: FC.
Data set [8] deals with T2, Solute carrier family 22 member 1. The data set is described as §1. Format: cell-based. The note with it: hek293, 2 min, 0.5 µM.
The target is the same in data set [9]. The description is as §2. Format: cell-based. The note with it: hek293, 2 min, 0.1 µM.
Data set [10] has the same target. Described as §3. Format: cell-based. Particulars: hek293, 2 min, 0.05 µM.

On to `C[N+]1(CC2CC2)CC[C@]23c4c5ccc(O)c4O[C@H]2C(=O)CC[C@@]3(O)[C@H]1C5` (stereo not given in full) [METHYLNALTREXONE], for which the uptake ratio at 2 min, 0.5 µM at OCT1 (SLC22A1) [1] was determined as 85.9. For the same compound, the “fold change (FC)” value stood at 5.9 in data set [2] and 7.7 in data set [6]. For the same compound, the results for the Ratio in data set [3] and in [4] were 0.0005 and 0.277, respectively. Besides, the uptake ratio at 2 min, 0.1 µM on OCT1 (SLC22A1) [5] lay within 67.9 to 86. The uptake ratio at 2 min, 0.05 µM on OCT1 (SLC22A1) [7] was 32.4.

Consider `CN1CC[C@]23c4c5ccc(O)c4O[C@H]2[C@@H](O)C=C[C@H]3[C@H]1C5` [MORPHINE], for which the figures for the “fold change (FC)” value in data set [8], in data set [9] and in data set [10] were 4.3, 5.1 and 4.6, respectively.
